Values joined by “and” are separate entries in the source; they are usually repeats but may differ in a detail not shown here. Equal values may be shown once. The entries are a selection whose mix differs from that of the whole data set. Records with an inconclusive call do not appear. Active and inactive are the calls of the source. Calls come from the whole dose curve; as a rule, active = well fitted inhibition curve with a large enough effect; inconclusive = small, poorly fitted or top-dose-only effect; inactive = flat fitted curve, though single readings scatter.
assay: qHTS for Inhibitors of human tyrosyl-DNA phosphodiesterase 1 (TDP1): qHTS in cells in absence of CPT; conditions: DT40 Tdp1-/- hTDP1 cells, no CPT, ATP luminescence, 48 h; series mostly up to 46.2 µM; activity change, negative = growth inhibition: at the top concentration; note: nearly all actives have a fitted effect of over 55% in size
% is set by controls: 0 for no effect and ±100 for the full control effect; potency is the fitted concentration of half-maximal effect.

Structure (SMILES)	activity change, negative = growth inhibition	Potency
COc1ccc(CC(C)NCC(O)c2ccc(O)c(NC=O)c2)cc1 (centres undefined)	inactive: -21.2%	
N[C@@H](Cc1ccc(N(CCCl)CCCl)cc1)C(=O)O		active: 531 nM and active: 231 nM
COc1ccc(C[C@@H](C)NC[C@H](O)c2ccc(O)c(NC=O)c2)cc1	inactive: -27.3%	
NC(Cc1ccc(N(CCCl)CCCl)cc1)C(=O)O (centres undefined)		active: 5.17 µM and active: 224 nM
